This assay deals with cruzain (Trypanosoma cruzi, UniProt P25779). As to conditions: 37°C, pH 5.5, substrate Z-FR-AMC.
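Further: fluorometric read-out of substrate hydrolysis at excitation 355 nm and emission 460 nm, initial rates over 5 min, Ki from nonlinear kinetic fits, duplicate runs.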

Amino acid sequences for entries named in this document (tags omitted). Residues count along the entry.
UniProt P25779, 123-337 limits assumed: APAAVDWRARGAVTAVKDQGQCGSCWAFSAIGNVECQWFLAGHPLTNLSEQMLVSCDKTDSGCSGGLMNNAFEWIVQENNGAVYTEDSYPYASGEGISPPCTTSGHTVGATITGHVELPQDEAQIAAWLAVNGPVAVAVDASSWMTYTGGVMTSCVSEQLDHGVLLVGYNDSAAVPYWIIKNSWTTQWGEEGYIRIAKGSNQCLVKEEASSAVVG

For orientation: pKi means the negative decadic logarithm of the Ki, by convention in mol/L. `N#CCNC(=O)[C@@H](Cc1ccccc1)NC(=O)c1ccccc1` returned a negative logarithm of the Ki (pKi) of 5.2.

The values are drawn from publication PMC4501791, “Molecular Design, Synthesis and Trypanocidal Activity of Dipeptidyl Nitriles as Cruzain Inhibitors” (PLoS Neglected Tropical Diseases, 2015).
